Assays:
BACE1 = BACE1 (Homo sapiens, UniProt P56817); test: Biochemical FRET based assay; details: recombinant BACE1 1 μg/ml, 120 minutes at room temperature, pH 5.0
Abeta 1-42 = test: Cellular αLisa assay in SKNBE2 cells, Abeta 1-42; details: human neuroblastoma SKNBE2 expressing hAPP695, incubated for 18 hours
Abeta total = test: Cellular αLisa assay in SKNBE2 cells, Abeta total; details: human neuroblastoma SKNBE2 expressing hAPP695, incubated for 18 hours

By UniProt entry, the sequences of proteins in these tests, tags left out. Residues count along the entry.
UniProt P56817, 46-501 limits assumed: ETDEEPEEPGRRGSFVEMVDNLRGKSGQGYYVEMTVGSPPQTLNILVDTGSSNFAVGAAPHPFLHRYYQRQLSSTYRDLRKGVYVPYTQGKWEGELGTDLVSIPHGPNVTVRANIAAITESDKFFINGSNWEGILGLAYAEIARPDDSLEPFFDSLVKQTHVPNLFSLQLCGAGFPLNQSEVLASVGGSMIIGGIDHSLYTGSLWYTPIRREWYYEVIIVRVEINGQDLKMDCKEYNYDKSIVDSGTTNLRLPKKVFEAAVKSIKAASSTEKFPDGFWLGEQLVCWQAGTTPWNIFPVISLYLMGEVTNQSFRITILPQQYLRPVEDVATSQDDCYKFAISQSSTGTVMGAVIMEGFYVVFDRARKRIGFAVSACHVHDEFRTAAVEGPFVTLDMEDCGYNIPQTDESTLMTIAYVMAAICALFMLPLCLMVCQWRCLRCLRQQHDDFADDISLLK

Compound: CN1CC(N)=NC(C)(c2cccc(NC(=O)c3ccc(C(F)(F)F)cn3)c2)C1=O (stereo not drawn)
- Biochemical FRET based assay pIC50 (BACE1): 5.86
- Cellular αlisa assay in SKNBE2 cells Aβ42 pIC50 (Abeta 1-42): 7.17
- Cellular αlisa assay in SKNBE2 cells Aβtotal pIC50 (Abeta total): 7.10

Compound: CN1CC(N)=NC(C)(c2cccc(NC(=O)c3ccc(C#N)cn3)c2)C1=O (stereo not drawn)
- Biochemical FRET based assay pIC50 (BACE1): 6.09
- Cellular αlisa assay in SKNBE2 cells Aβ42 pIC50 (Abeta 1-42): 6.73
- Cellular αlisa assay in SKNBE2 cells Aβtotal pIC50 (Abeta total): 6.82
